The assay concerns the target Human STING HAQ (Homo sapiens, UniProt Q86WV6, G230A/H232R/R293Q/R71H). Briefly: HAQ STING agonist activity reporter assay (THP1-Dual cells).
Setting [1] is: read-out: Human STING EC50 (μM) HAQ, Table 4, ammonium salt form of each compound, 20 hrs, tested form: NH4 salt.
[2] abbreviates: read-out: Human STING EC50 (μM) HAQ, Table 4, ammonium salt form of each compound, 20 hrs.

Protein sequences, listed by entry. Tags and fused reporters are not part of them.
UniProt Q86WV6, whole entry R71H/G230A/H232R/R293Q: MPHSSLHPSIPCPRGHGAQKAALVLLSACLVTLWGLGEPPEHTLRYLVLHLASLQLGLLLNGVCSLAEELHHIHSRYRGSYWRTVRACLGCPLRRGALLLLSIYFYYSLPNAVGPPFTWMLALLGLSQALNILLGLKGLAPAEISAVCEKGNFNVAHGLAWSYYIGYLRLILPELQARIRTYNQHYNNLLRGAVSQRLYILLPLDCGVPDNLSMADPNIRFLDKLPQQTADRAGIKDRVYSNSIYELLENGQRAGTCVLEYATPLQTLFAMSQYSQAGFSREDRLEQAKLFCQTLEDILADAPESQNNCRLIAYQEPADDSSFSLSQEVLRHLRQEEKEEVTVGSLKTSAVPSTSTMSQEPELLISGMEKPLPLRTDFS

The text below walks through data of US20200055883A1.

Like-named read-outs stand apart in the source and are kept apart here.

A word on the EC50: it is the concentration needed to bring the measured effect to its halfway point.

For the molecule `O=P1(S)OC[C@H]2O[C@@H]3[C@H](F)[C@@H]2OP(=O)(S)OC[C@H]2O[C@H]([C@H](F)[C@@H]2O1)n1cnc2c(ncnc21)NCCC=CCNc1ncnc2c1ncn23` (stereo partly shown), the EC50 (read-out: Human STING EC50 (μM) HAQ, Table 5, ammonium salt form of each compound, 20 hrs) is > 100 µM.

`O=[P@]1(S)OC[C@H]2O[C@@H]3[C@H](O)[C@@H]2O[P@@](=O)(S)OC[C@H]2O[C@H]([C@H](O1)[C@@H]2O)n1cnc2c(ncnc21)NC/C=C\CNc1ncnc2c1ncn23`: the EC50 under setting [1] is > 100 µM.

In the case of `O=P1(S)OC[C@H]2O[C@@H]3[C@H](O)[C@@H]2OP(=O)(S)OC[C@H]2O[C@H]([C@H](O1)[C@@H]2O)n1cnc2c(ncnc21)NCC=CCCNc1ncnc2c1ncn23` (single isomer, unassigned), the 50% effective concentration (EC50) under setting [2] is > 100 µM.

Consider `O=[P@@]1(S)OC[C@H]2O[C@@H]3[C@H](F)[C@@H]2O[P@](=O)(S)OC[C@H]2O[C@H]([C@H](O1)[C@@H]2O)n1cnc2c(ncnc21)NC/C=C\CNc1ncnc2c1ncn23`, for which the half-maximal effective concentration (EC50) under setting [1] is > 100 µM.

Regarding `O=[P@]1(S)OC[C@H]2O[C@@H]3[C@H](O)[C@@H]2O[P@](=O)(S)OC[C@H]2O[C@H]([C@H](O1)[C@@H]2O)n1cnc2c(ncnc21)NCC=CCCNc1ncnc2c1ncn23`, under setting [2], the EC50 is > 100 µM.

On to `O=[P@@]1(S)OC[C@H]2O[C@@H]3[C@H](O)[C@@H]2O[P@](=O)(S)OC[C@H]2O[C@H]([C@H](O1)[C@@H]2O)n1cnc2c(ncnc21)NC/C=C/CCNc1ncnc2c1ncn23`, for which the EC50 under setting [1] is > 100 µM.

In the case of `O=[P@]1(S)OC[C@H]2O[C@@H]3[C@H](O)[C@@H]2O[P@](=O)(S)OC[C@H]2O[C@H]([C@H](O1)[C@@H]2O)n1cnc2c(ncnc21)NCC/C=C/CNc1ncnc2c1ncn23`, the EC50 under setting [1] was > 100 µM.

Turning to `O=[P@]1(S)OC[C@H]2O[C@@H]3[C@H](O)[C@@H]2O[P@](=O)(S)OC[C@H]2O[C@H]([C@H](O1)[C@@H]2O)n1cnc2c(ncnc21)NC/C=C\CNc1ncnc2c1ncn23`, under setting [1], the EC50 is > 100 µM.

As for `O=[P@]1(S)OC[C@H]2O[C@@H]3[C@H](F)[C@@H]2O[P@@](=O)(S)OC[C@H]2O[C@H]([C@H](F)[C@@H]2O1)n1cnc2c(ncnc21)CC/C=C/CCc1ncnc2c1ncn23`, the EC50 (read-out: hSTING EC50 (μM) HAQ, Table 6, ammonium salt form, except Compounds 26, 33, 34 tested as bis-TEA salts, tested form: NH4 salt) was > 100 µM.

As to `O=[P@]1(S)OC[C@H]2O[C@@H]3[C@H](O)[C@@H]2O[P@@](=O)(S)OC[C@H]2O[C@H]([C@H](O1)[C@@H]2O)n1cnc2c(ncnc21)NC/C=C/CNc1ncnc2c1ncn23`, the 50% effective concentration (EC50) under setting [1] is > 100 µM.
